Compound activity from PubChem BioAssay.
A selection: hits, their analogues and other compounds. The true share with any hit is near 2.8%.
UUG fidelity: alters start codon recognition fidelity in yeast. S. cerevisiae UUG-firefly luciferase reporter, luminescence/redox ratio. activity score, % at 18.7 µM. 0.13% of 350,000 active. AID 602363;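 active = replicate mean at a twofold rise or more, about +100% in these data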;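 also: firefly luciferase made from a UUG start codon reports start codon fidelity; reporter light over untreated wells divided by growth signal over untreated wells; some hits fall short of that in this replicate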
Wnt bcat act: Wnt/beta-catenin pathway activators, primary screen, cell-based, plate reader, single point. Wnt/beta-catenin reporter cell assay, activator. activation, % at 9.35 µM. 1.2% of 300,000 active. AID 743398, 2014; in the data active = activation above about 30%, passing the limit was not always enough; inconclusive = no clear call, values can overlap the other calls
esBAF inh: Bmi1 luciferase reporter increase in mESCs, primary screen, esBAF inhibitor project, mouse ES cells, Bmi1 luciferase knock-in, single point; 24 h; 100% = twice the neutral-well signal; 2% of 350,000 active; AID 602393, 2012; reporter increase, % at 12.5 µM; in the data active = activation above about 40%; inconclusive = no clear call, values can overlap the other calls;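 note: a rise in the Bmi1 reporter signal indicates esBAF inhibition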
MITF act: activators of MITF-driven TRPM1 promoter reporter, primary screen, cell-based, SK-MEL-5, luciferase, single point | SK-MEL-5 TRPM1-promoter luciferase, 24 h; % of positive control, neutral wells = 0 | activation, % at 12.5 µM | 0.75% of 300,000 active | AID 588334, 2011;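 active = mean activation of at least 80% with every replicate also reaching 80%; inconclusive = mean reaches 80% but some replicate falls short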
PglD inh: C. jejuni PglD acetyltransferase inhibitors, primary screen, biochemical, DTNB colorimetric, single point | inhibition, % at 12.5 µM | UDP-N-acetylbacillosamine N-acetyltransferase PglD (Campylobacter jejuni) | 0.098% of 360,000 active | purified PglD enzyme, DTNB colorimetric CoA detection; in the data active = inhibition above about 16%, passing the limit was not always enough; inconclusive = no clear call, values can overlap the other calls
miR122 inh: miR-122 Renilla sensor signal increase in Huh7, primary screen, miR-122 inhibitor project, cell-based, single point, plate reader | activation (reporter increase), % at 12.5 µM | 0.3% of 340,000 active | Huh7 miR-122 Renilla luciferase sensor, 48 h; neutral wells = 0, positive control = 100;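 active = mean replicate activation score at least 90 and every replicate individually at or above 90; inconclusive = only one of the two criteria met; inactive = neither criterion met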;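 note: higher luciferase means less miR-122 activity so hits act as miR-122 inhibitors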
Of the large screens only hits and unclear results are named; the others gave an inactive call; ! = not active in a repeat; [ ] = remark or other dose.

COc1ccc(NC(=O)c2cc(C3CCCCN3S(=O)(=O)Cc3ccccc3)on2)cn1 (stereo unspecified)	esBAF inh 51 (no result: MITF act)
O=C(Nc1ccccc1F)N[C@H]1CC[C@@H](CCNC(=O)C2CCC2)O[C@@H]1CO	none (no result: Wnt bcat act, MITF act, miR122 inh)
COc1ccccc1C(=O)COC(=O)c1cccs1	esBAF inh 81
O=C(COC(=O)CCC(=O)c1cccs1)NCc1ccc(Cl)cc1	none
COc1ccccc1C(=O)COC(=O)C1(C)CC1(Cl)Cl (stereo unspecified)	esBAF inh 60
COc1ccccc1C(=O)COC(=O)c1ccccc1O	esBAF inh inconclusive
CCOc1ccc(C(=O)c2cccs2)cc1	esBAF inh 48
COc1ccc(CNC(=O)COC(=O)CCC(=O)c2cccs2)cc1	Wnt bcat act 39
COc1ccc(CN(C)C[C@H]2Oc3ccc(NC(=O)CCC(F)(F)F)cc3CC(=O)N([C@@H](C)CO)C[C@H]2C)cc1	none (no result: Wnt bcat act, MITF act)
COc1cccc(C(=O)COC(=O)c2cccs2)c1	Wnt bcat act 39 (no result: miR122 inh)
O=C(COC(=O)c1cccs1)c1ccccc1	none (no result: Wnt bcat act)
COc1ccc(C(=O)COC(=O)c2cccs2)cc1	Wnt bcat act 54, esBAF inh 68
C[C@H](CO)N1C[C@H](C)[C@H](CN(C)S(=O)(=O)c2cccc(F)c2)Oc2ncc(C#CC3CCCCC3)cc2C1=O	none (no result: UUG fidelity, Wnt bcat act, MITF act)
C[C@@H]1CN([C@@H](C)CO)C(=O)c2cc(NC(=O)Nc3ccccc3)ccc2O[C@@H](C)CCCCO[C@H]1CN(C)C	none (no result: Wnt bcat act, MITF act)
CC(C)NC(=O)N(C)C[C@@H]1Oc2ccc(NC(=O)c3ccncc3)cc2CC(=O)N([C@H](C)CO)C[C@H]1C	none (no result: Wnt bcat act, MITF act)
Cc1ccc(S(=O)(=O)Nc2cccc3c2O[C@H](CN(C)C(=O)Nc2ccc4c(c2)OCO4)[C@H](C)CN([C@H](C)CO)C3=O)cc1	esBAF inh 72 (no result: Wnt bcat act, MITF act)
Cc1ccc(S(=O)(=O)Nc2cccc3c2O[C@@H](CN(C)Cc2ccc(Cl)c(Cl)c2)[C@H](C)CN([C@H](C)CO)C3=O)cc1	miR122 inh 110[16.7 µM] (no result: Wnt bcat act, MITF act)
C[C@@H]1CN([C@H](C)CO)C(=O)c2cccc(NS(=O)(=O)c3cccs3)c2O[C@@H]1CN(C)Cc1ccc(C(F)(F)F)cc1	none (no result: Wnt bcat act, MITF act)
C[C@H](CO)N1C[C@H](C)[C@@H](CN(C)Cc2ccc(Cl)c(Cl)c2)Oc2c(NS(=O)(=O)c3cccs3)cccc2C1=O	miR122 inh 95!
C[C@@H]1CN([C@H](C)CO)C(=O)c2cccc(NS(=O)(=O)c3cccs3)c2O[C@H]1CN(C)Cc1ccc(C(F)(F)F)cc1	miR122 inh 264[16.7 µM] (no result: Wnt bcat act, MITF act)
COc1cccc(NC(=O)N[C@@H]2C=C[C@@H](CC(=O)NCc3ccccn3)O[C@@H]2CO)c1	none (no result: Wnt bcat act, MITF act, miR122 inh)
CC1=NN(S(=O)(=O)c2ccc(C)cc2)C(=O)c2ccccc2O1	none
COc1ccc(S(=O)(=O)N2N=C(C)Oc3ccccc3C2=O)cc1	miR122 inh 123 (no result: esBAF inh)
COc1ccc(S(=O)(=O)N(C)C[C@H]2Oc3ccc(NC(=O)Nc4ccc5c(c4)OCO5)cc3C(=O)N([C@@H](C)CO)C[C@H]2C)cc1	none (no result: Wnt bcat act, MITF act)
c1ccc(Nc2ccnc(Nc3ccccc3)n2)cc1	Wnt bcat act 71, esBAF inh 45
NNc1nc(Nc2ccccc2)nc(Nc2ccccc2)n1	none
CCCCOC(=O)Nc1ccc(C(C)C)cc1	esBAF inh 75 (no result: Wnt bcat act, MITF act)
CCCCOC(=O)Nc1ccc(N2CCOCC2)cc1	esBAF inh inconclusive (no result: Wnt bcat act)
CCCCOC(=O)Nc1ccc(N2CCCCC2)cc1	Wnt bcat act 74 (no result: MITF act)
C[C@@H]1CN([C@H](C)CO)C(=O)c2cc(C3=CCCCC3)cnc2O[C@H]1CN(C)C(=O)c1ccccn1	none (no result: Wnt bcat act, MITF act)
CN(C(=O)COc1ccc(Cl)cc1Br)C1CCCCC1	esBAF inh 48
O=C(COC(=O)COc1ccc(Cl)cc1Br)NC1CCCCCC1	none
Cc1ccsc1C(=O)OCC(=O)NC1CCCC1	esBAF inh inconclusive
CN(C(=O)COC(=O)c1cccnc1Cl)C1CCCCC1	esBAF inh 56
Cc1ccsc1C(=O)OCC(=O)N(C)C1CCCCC1	Wnt bcat act 48 (no result: miR122 inh)
Cc1noc(C)c1S(=O)(=O)N(C)C[C@H]1Oc2ccc(NS(=O)(=O)c3cn(C)cn3)cc2C(=O)N([C@H](C)CO)C[C@H]1C	none (no result: Wnt bcat act, MITF act)
O=C(C[C@H]1C[C@H]2c3cc(NC(=O)Nc4ccccc4)ccc3O[C@H]2[C@@H](CO)O1)NC1CCCC1	none (no result: Wnt bcat act, MITF act)
C[C@H](O)C#Cc1cnc2c(c1)C(=O)N([C@@H](C)CO)C[C@H](C)[C@@H](CN(C)C(=O)Cc1ccncc1)O2	none (no result: UUG fidelity, Wnt bcat act, MITF act)
CCNC(=O)C[C@@H]1CC[C@@H](NS(=O)(=O)c2ccc(F)cc2)[C@@H](CO)O1	none (no result: Wnt bcat act, MITF act, miR122 inh)
CC(C)NC(=O)Nc1ccc2c(c1)C(=O)N(C)[C@H]1CC[C@H](CC(=O)Nc3ccccc3Cl)O[C@@H]1CO2	none (no result: UUG fidelity, Wnt bcat act, MITF act)
C[C@H](CO)N1C[C@H](C)[C@@H](CN(C)Cc2ccc(Cl)c(Cl)c2)Oc2c(NC(=O)NC3CCCCC3)cccc2C1=O	none (no result: Wnt bcat act, MITF act)
C[C@@H]1CN([C@H](C)CO)C(=O)c2cccc(NC(=O)NC3CCCCC3)c2O[C@H]1CN(C)Cc1ccc(Cl)c(Cl)c1	miR122 inh 118[16.7 µM] (no result: Wnt bcat act, MITF act)
C[C@H](CO)N1C[C@H](C)[C@@H](CN(C)Cc2ccc(Cl)c(Cl)c2)Oc2c(NC(=O)C3CC3)cccc2C1=O	miR122 inh 114[16.7 µM]
CCCNC(=O)N(C)C[C@@H]1Oc2cc(C3=CCCC3)ccc2S(=O)(=O)N([C@H](C)CO)C[C@@H]1C	none (no result: Wnt bcat act, MITF act, miR122 inh)
COC(=O)c1ccc(CSc2nc3ccccc3s2)o1	esBAF inh 47
COC(=O)c1ccc(CSc2n[nH]c(=S)s2)o1	none (no result: MITF act)
Cc1noc(C)c1NC(=O)Nc1ccc2c(c1)C(=O)N(C)[C@H]1CC[C@@H](CC(=O)N(C)C)O[C@@H]1CO2	none (no result: Wnt bcat act, MITF act)
Cc1ccc(-c2cnc3c(c2)C(=O)N([C@H](C)CO)C[C@@H](C)[C@@H](CN(C)S(C)(=O)=O)O3)cc1	none (no result: UUG fidelity, Wnt bcat act, MITF act)
CCn1c(O)c(N=Nc2ccc3ccccc3n2)c2ccccc21	MITF act 116 (no result: UUG fidelity, esBAF inh, PglD inh, miR122 inh)
C[C@H](CO)N1C[C@H](C)[C@@H](CN(C)C(=O)NC2CCCCC2)OCCCC[C@H](C)Oc2ccc(NC(=O)c3ccncc3)cc2C1=O	none (no result: Wnt bcat act, MITF act)
Cc1cccc(-c2nnc(-c3cccc(NC(=O)Cc4cccs4)c3)o2)c1	esBAF inh 80 (no result: Wnt bcat act)
C[C@@H]1CCCCO[C@@H](CN(C)C(=O)Nc2ccc(F)cc2)[C@H](C)CN([C@@H](C)CO)C(=O)c2cc(NC(=O)C3CCCCC3)ccc2O1	none (no result: Wnt bcat act, MITF act)
Cn1c2ccccc2c2nnc(NN)nc21	none
CCCCc1c(C)nn(-c2nnc3c4ccccc4n(C)c3n2)c1C	esBAF inh 48 (no result: Wnt bcat act)
